Tests used:
[1] = biological target: T1, mu-opioid receptor (C6mu membranes) (Rattus norvegicus, UniProt P33535); assay: [3H]diprenorphine saturation binding in C6mu membranes; conditions: 10 uM modulator
[2] = biological target: delta opioid receptor (OPRD1) (Homo sapiens, UniProt P41143); assay: β-arrestin recruitment assay (PathHunter) in U2OS-OPRD1 cells; type: cell-based
[3] = biological target: mu-opioid receptor (OPRM1) (Homo sapiens, UniProt P35372); assay: β-arrestin recruitment assay (PathHunter) in U2OS-OPRM1 cells
[4] = biological target: T1, mu-opioid receptor (C6mu membranes); assay: [35S]GTPγS binding in C6mu cell membranes; type: biochemical
[5] = biological target: T1, mu-opioid receptor (C6mu membranes); assay: DAMGO competition binding with [3H]diprenorphine in C6mu membranes; conditions: 10 uM modulator

Sequences of proteins named here, by UniProt entry; tags and fusion partners are left off.
UniProt P33535, whole entry: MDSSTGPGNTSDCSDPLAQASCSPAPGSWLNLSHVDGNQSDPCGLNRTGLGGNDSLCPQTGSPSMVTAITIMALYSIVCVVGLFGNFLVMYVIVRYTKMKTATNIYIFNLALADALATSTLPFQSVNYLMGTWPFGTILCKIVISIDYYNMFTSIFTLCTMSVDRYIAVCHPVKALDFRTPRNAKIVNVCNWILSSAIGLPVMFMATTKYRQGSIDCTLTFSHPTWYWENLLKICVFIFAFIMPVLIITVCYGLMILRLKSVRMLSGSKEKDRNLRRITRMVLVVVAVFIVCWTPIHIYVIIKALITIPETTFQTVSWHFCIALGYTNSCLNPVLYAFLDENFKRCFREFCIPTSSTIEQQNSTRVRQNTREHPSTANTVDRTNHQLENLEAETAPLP
UniProt P41143, whole entry: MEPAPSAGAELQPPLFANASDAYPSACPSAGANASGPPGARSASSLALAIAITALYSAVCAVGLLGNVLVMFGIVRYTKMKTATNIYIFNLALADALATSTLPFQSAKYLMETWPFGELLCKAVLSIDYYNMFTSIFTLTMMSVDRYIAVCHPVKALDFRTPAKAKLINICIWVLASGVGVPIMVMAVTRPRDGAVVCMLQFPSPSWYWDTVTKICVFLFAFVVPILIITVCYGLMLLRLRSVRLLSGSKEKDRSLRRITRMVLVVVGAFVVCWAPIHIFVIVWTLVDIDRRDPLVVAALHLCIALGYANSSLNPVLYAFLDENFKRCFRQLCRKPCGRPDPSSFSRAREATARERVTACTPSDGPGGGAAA
UniProt P35372, whole entry: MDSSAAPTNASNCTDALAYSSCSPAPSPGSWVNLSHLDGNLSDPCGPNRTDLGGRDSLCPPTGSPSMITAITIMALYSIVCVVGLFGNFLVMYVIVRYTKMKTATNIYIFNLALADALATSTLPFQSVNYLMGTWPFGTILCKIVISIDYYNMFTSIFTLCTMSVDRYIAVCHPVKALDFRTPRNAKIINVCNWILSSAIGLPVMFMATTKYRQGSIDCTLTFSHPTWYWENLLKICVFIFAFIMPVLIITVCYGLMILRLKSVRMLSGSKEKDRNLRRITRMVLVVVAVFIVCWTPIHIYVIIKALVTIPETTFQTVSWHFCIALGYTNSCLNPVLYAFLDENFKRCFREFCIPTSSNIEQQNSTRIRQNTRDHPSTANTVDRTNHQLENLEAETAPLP

## COc1ccc(C2SCCN2S(=O)(=O)c2ccc(C)cc2)cc1[N+](=O)[O-] (centres unmarked)
[1]
  decrease in [3H]diprenorphine binding affinity: 2 fold
[2]; U2OS-OPRD1, no leu-enkephalin
  β-arrestin recruitment, agonist detection mode: no activity
[2]; U2OS-OPRD1, ~EC10 (0.4 nM) leu-enkephalin
  β-arrestin recruitment, PAM detection mode: no activity
[3]; U2OS-OPRM1, ~EC10 endomorphin-I
  β-arrestin recruitment, PAM detection mode activity: no activity
[3]; U2OS-OPRM1, β-arrestin PAM and SAM detection modes
  Description (PAM efficacy class / SAM): SAM
[3]; U2OS-OPRM1 cells, no orthosteric agonist
  β-arrestin recruitment, agonist detection mode (compound alone): no activity
[4]; 10 uM modulator
  effect on DAMGO potency in [35S]GTPγS assay: not significantly increased
  effect on morphine Emax in [35S]GTPγS assay: increased morphine Emax to a small degree
  effect on morphine potency in [35S]GTPγS assay: not significantly increased
[4]; modulator alone
  agonist activity of modulator in [35S]GTPγS binding: No significant agonist activity was detected
[5]
  effect on DAMGO binding affinity: no significant effect

Source: US9784740B2 (priority 2013, dated 2017)
